pIC50: −log10 of the molar value.
Molecular target: TDP-43 (Homo sapiens, UniProt Q13148)
Test: TDP-43-DNA alpha-screen assay (bt-TAR-32 displacement)
Conditions: read-out: Activity (IC50) in the TDP-43-DNA alpha-screen assay; bt-TAR-32 0.125 nM, 15 ng/ml TDP-43; tested form: HCl (trihydrochloride)
Procedure: Alpha-screen assay: Displacement of bt-TG6 binding was measured using AlphaScreen technology as previously described (Cassel, J. A. et al., Journal of Biomolecular Screening, 2010, 15, 1099-1106; Cassel, J. A.; Reitz, A. B. et al. The effects of small molecule inhibitors of nucleic acid binding to TDP-43 on TDP-43 metabolism and function. Biochimie, 2012, 94, 1974-1981).
Test compounds were diluted in assay buffer (25 mM Tris [pH 7.4], 0.1% bovine serum albumin [BSA], 0.1% Triton X-100) at 4× the desired final concentration. Dilutions of test compound (50 to 0.02 μM in half-log dilutions with a no compound control well) were pre-incubated with TDP-43 (5 μl of 60 ng/mL) pre-bound to AlphaScreen® anti-GST acceptor beads (5 μl of 40 μg/mL) in 15 μl volume for 30 minutes at 23° C. with shaking. Assays were initiated by the addition of 5 μl bt-TAR-32 (5′-CTGCTTTTTGCCTGTACTGGGTCTCTGTGGTT-3′) 0.5 nM pre-bound to AlphaScreen® strepavidin donor beads (40 μg/mL). After incubation in the dark at 23° C. for 90 minutes with shaking, the AlphaScreen® signal was measured on a Synergy 2 plate reader (BioTek, Winooski, Vt.). IC50 values were determined from nonlinear regression fits of the data to a Sigmoidal dose response variable slope model in GraphPad Prism. […]

Chains of the proteins cited; added tags and fusions are not shown.
UniProt Q13148, whole entry: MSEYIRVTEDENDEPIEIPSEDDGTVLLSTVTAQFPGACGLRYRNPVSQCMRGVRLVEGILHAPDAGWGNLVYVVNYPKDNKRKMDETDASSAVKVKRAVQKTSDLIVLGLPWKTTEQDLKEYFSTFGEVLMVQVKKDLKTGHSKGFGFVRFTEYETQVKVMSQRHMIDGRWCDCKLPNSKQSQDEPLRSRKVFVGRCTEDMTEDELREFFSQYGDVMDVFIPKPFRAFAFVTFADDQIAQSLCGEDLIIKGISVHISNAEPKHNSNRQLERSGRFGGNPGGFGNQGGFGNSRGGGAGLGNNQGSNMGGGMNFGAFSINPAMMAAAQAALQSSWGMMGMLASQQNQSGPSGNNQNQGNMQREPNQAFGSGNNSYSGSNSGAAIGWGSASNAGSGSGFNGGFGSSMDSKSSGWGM

Compound `COc1ccc(-c2cc(NCCCN(C)CCCN)c3cc(OC)c(OC)cc3n2)cc1` [Example 94] has a pIC50 of 7.30.
